According to ChEMBL document CHEMBL3400079 (Bioorg Med Chem, 2015):

Biological target: T1, AGAP002992-PA (Anopheles gambiae, UniProt Q5TU56)
T1 sequence (Q5TU56 whole entry): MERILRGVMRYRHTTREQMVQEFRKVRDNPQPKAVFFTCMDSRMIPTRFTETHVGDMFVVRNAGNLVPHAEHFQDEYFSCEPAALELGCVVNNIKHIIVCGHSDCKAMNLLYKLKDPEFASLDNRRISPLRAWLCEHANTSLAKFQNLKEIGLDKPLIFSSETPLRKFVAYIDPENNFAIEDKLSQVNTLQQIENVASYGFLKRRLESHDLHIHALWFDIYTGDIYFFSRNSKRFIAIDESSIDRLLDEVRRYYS

- Ki: 703 nM
Compound: NS(=O)(=O)c1ccc(C(=O)O)cc1 [CARZENIDE]
